Measured logP (octanol/water) values of organic chemicals

Data: OPERA 2.9 data sets, kmansouri/OPERA on GitHub.

The octanol-water partition coefficient is given as log10; larger values mean a more lipophilic compound.
"–" marks a cell with nothing listed here.
The databases behind each value are named after "via".

SMILES	name	logP	via
C[N+]1(CC(=O)N/N=C/c2ccccc2O)CCOCC1.[Cl-]	–	-2.4	eChemPortal
CCCCCCCCCCCCCCCCOC(=O)CC(O)(CC(=O)OCCCCCCCCCCCCCCCC)C(=O)OCCCCCCCCCCCCCCCC	Trihexadecyl citrate	7.27	eChemPortal
CCCCCCC(=O)OC(=O)CCCCCC	Heptanoic acid, 1,1'-anhydride	5.58	eChemPortal
[Cu+2].[O-]c1ccccc1/N=C/c1c([O-])ccc2ccccc12	–	2.2	eChemPortal
O=C1CCCCCN1C(=O)NCCCCCCNC(=O)N1CCCCCC1=O	–	2.702	eChemPortal
COc1c(N2CCNC(C)C2)c(F)cc2c(=O)c(C(=O)O)cn(C3CC3)c12 (stereo not given)	Gatifloxacin	2.6	PubChem
CC(=O)Nc1ccc(/N=N/c2c(N)ccc3cc(S(=O)(=O)[O-])cc(O)c23)c(C(F)(F)F)c1.[Na+]	–	-1.5	eChemPortal
C=CC1CC2C=CC1C2 (stereo not given)	5-Vinyl-2-norbornene	3.39	eChemPortal
CCOP(=O)(Cc1cc(C(C)(C)C)c(O)c(C(C)(C)C)c1)OCC	–	2.9	eChemPortal
CCCC(C)=NO[Si](ON=C(C)CCC)(ON=C(C)CCC)ON=C(C)CCC	–	1.25	eChemPortal
NS(=O)(=O)Cc1noc2ccccc12	Zonisamide	0.5	PubChem
c1ccc(COc2ccc3ccccc3c2)cc1	Benzyl 2-naphthyl ether	5	eChemPortal
C=CC1CCCCC1	Vinylcyclohexane	5.01	eChemPortal
C=CCCCCCCCCCCCC	1-Tetradecene	7.08	OFMPub
C=CCOCC(=C)C(=O)OC	Methyl 2-((allyloxy)methyl)acrylate	1.95	eChemPortal
C=C[Si](O/N=C(\C)CCC)(O/N=C(\C)CCC)O/N=C(\C)CCC	2-Pentanone, O,O',O''-(ethenylsilylidyne)trioxime	1.25	eChemPortal
O=C1/C(=C2\Nc3ccc(S(=O)(=O)[O-])cc3C2=O)Nc2ccc(S(=O)(=O)[O-])cc21.[Na+].[Na+]	C.I. Acid Blue 74	-3.57	eChemPortal
C=CC(=O)OCCOc1ccccc1	2-Phenoxyethyl acrylate	2.58	eChemPortal
CCC(N)(CO)CO	2-Amino-2-ethyl-1,3-propanediol	-0.123	OCHEM, eChemPortal
CC(=O)CC(C)(C)c1ccccc1	2-Pentanone, 4-methyl-4-phenyl-	2.77	eChemPortal
CCCC(=O)OC(C)(C)Cc1ccccc1	alpha,alpha-Dimethylphenethyl butyrate	4.7	eChemPortal
CCN(CC)c1ccc(C=O)cc1	4-(Diethylamino)benzaldehyde	2.72	OCHEM
CCCCCCC(CO)CCCC (stereo not given)	2-Butyloctan-1-ol	5.5	eChemPortal
CC(=O)OCCC(C)CC(C)(C)C (stereo not given)	3,5,5-Trimethylhexyl acetate	4.6	eChemPortal
O=C(c1ccccc1)c1ccc(Cl)cc1	4-Chlorobenzophenone	3.748	eChemPortal
C[C@@H](O[C@H]1OCCN(Cc2nc(=O)[nH][nH]2)[C@H]1c1ccc(F)cc1)c1cc(C(F)(F)F)cc(C(F)(F)F)c1	Aprepitant	4.5	PubChem
C=CC(F)(F)C(F)(F)C(F)(F)C(F)(F)C(F)(F)C(F)(F)F	(Perfluorohexyl)ethylene	4.9	eChemPortal
COCCCNc1nc(NCCCOC)c(N=Nc2sc(C(=O)OC)c(C)c2C#N)c(C)c1C#N	–	6.1	eChemPortal
CC(CO)(CO)CO	2-(Hydroxymethyl)-2-methyl-1,3-propanediol	-1.105	OCHEM, eChemPortal
COc1cc([NH-])c([NH-])cc1OC.[Cl-].[Cl-].[Pt+4]	–	-0.47	OCHEM
C/C=C/C(=O)C1C(C)=CCCC1(C)C (stereo partly drawn)	(2E)-1-(2,6,6-Trimethyl-2-cyclohexen-1-yl)-2-buten-1-one	3.66	eChemPortal
N[C@@H](Cc1cc(I)c(Oc2ccc(O)cc2)c(I)c1)C(=O)O	3,5-Diiodo-L-thyronine	1.1	eChemPortal
CCCCC(=O)N(Cc1ccc(-c2ccccc2-c2nn[nH]n2)cc1)[C@H](C(=O)OCc1ccccc1)C(C)C	Valsartan benzyl ester	2.43	eChemPortal
COc1ccc(OC)c(NC(C)=O)c1	Acetamide, N-(2,5-dimethoxyphenyl)-	1.1	eChemPortal
CC(=O)Nc1cc(Nc2nc(F)nc(F)c2Cl)ccc1/N=N/c1ccc2cc(S(=O)(=O)[O-])cc(S(=O)(=O)[O-])c2c1.[Na+].[Na+]	–	-2.1	eChemPortal
CCN[C@H]1CN(CCCOC)S(=O)(=O)c2sc(S(N)(=O)=O)cc21	Brinzolamide	-1.8	PubChem
CO[C@@H]1C=CO[C@]2(C)Oc3c(C)c(O)c4c(c3C2=O)C(=N)C(N)=C(NC(=O)C(C)=CC=C[C@@H](C)[C@@H](O)[C@H](C)[C@H](O)[C@H](C)[C@@H](OC(C)=O)[C@H]1C)C4=O	–	3.8	eChemPortal
CC1=CCC(CCC(C)CO)C1(C)C (stereo not given)	3-Cyclopentene-1-butanol, .beta.,2,2,3-tetramethyl-	3.94	eChemPortal
COCCOCCOCCOCCO	2,5,8,11-Tetraoxatridecan-13-ol	-0.86	PubChem, eChemPortal
CCNC(=O)NN	N-Ethylhydrazinecarboxamide	-1.62	OCHEM
N=c1cc2n(-c3ccccc3)c3cc(Nc4ccccc4)c4c(S(=O)(=O)[O-])cccc4c3nc-2cc1S(=O)(=O)[O-].[Na+].[Na+]	–	-2.39	eChemPortal
CC(=O)[O-].CCN(CC)c1ccc(C(=C2C=CC(=[N+](CC)CC)C=C2)c2ccccc2)cc1	–	3.757	eChemPortal
CC(=O)OCC(=O)[C@@]12OC3(CCCC3)O[C@@H]1C[C@H]1[C@@H]3CCC4=CC(=O)C=C[C@]4(C)[C@@]3(F)[C@@H](O)C[C@@]12C	Amcinonide	2.3	PubChem
C=C[Si](C=C)(C=C)C=C	Silane, tetraethenyl-	4.3	eChemPortal
CCCCOC(=O)CCCCC(=O)OCCCC	Dibutyl adipate	4.17	OCHEM, PubChem, eChemPortal
CCC(Cl)Cl	1,1-Dichloropropane	2.3	PubChem
CCC(C)(C)c1ccccc1O	Phenol, 2-(1,1-dimethylpropyl)-	4	eChemPortal
C=C(C)C(=O)OCC1COC(C)(C)O1 (stereo not given)	–	2	eChemPortal
CCCCCCCC(=O)NCCN(CCO)CCC(=O)O	–	1.1	eChemPortal
CCCCCCOC(=O)c1ccccc1	Hexyl benzoate	5.1	eChemPortal

Excerpt, the final 5 entries:

{"smiles": "CCC(Cl)Cl", "name": "1,1-Dichloropropane", "logP": "2.3", "via": "PubChem"}
{"smiles": "CCC(C)(C)c1ccccc1O", "name": "Phenol, 2-(1,1-dimethylpropyl)-", "logP": "4", "via": "eChemPortal"}
{"smiles": "C=C(C)C(=O)OCC1COC(C)(C)O1", "stereo": "stereo not given", "logP": "2", "via": "eChemPortal"}
{"smiles": "CCCCCCCC(=O)NCCN(CCO)CCC(=O)O", "logP": "1.1", "via": "eChemPortal"}
{"smiles": "CCCCCCOC(=O)c1ccccc1", "name": "Hexyl benzoate", "logP": "5.1", "via": "eChemPortal"}

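These are experimental values that the OPERA curators gathered from public databases to train and test their QSAR models. The files give a single number for a compound and property, which may rest on several reports. How each value was measured is not recorded, so precision varies. A value may pool stereoisomers or salt forms, and the file does not say which form was measured. Some upstream entries may be estimates or bounds without being marked so.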